{"sequences": {"note": "Amino acid sequences for entries named in this document (tags omitted). Residues count along the entry.", "UniProt Q9BMJ1, 98-659": "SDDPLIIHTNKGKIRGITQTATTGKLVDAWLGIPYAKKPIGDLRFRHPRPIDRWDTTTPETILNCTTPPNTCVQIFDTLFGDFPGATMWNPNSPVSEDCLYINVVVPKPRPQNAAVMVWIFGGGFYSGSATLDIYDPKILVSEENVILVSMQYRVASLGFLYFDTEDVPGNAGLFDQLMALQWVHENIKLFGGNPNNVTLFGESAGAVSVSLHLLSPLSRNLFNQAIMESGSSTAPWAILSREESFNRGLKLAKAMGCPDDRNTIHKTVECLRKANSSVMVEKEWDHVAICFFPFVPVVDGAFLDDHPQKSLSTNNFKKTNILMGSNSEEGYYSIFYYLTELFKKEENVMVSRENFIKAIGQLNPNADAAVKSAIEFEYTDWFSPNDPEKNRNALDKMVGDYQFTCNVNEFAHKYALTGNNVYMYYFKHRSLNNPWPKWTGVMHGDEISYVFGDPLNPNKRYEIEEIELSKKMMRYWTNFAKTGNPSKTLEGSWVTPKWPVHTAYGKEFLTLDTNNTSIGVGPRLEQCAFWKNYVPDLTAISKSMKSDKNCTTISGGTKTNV"}, "source": "paper PMC9301657", "about": "(Journal of biochemical and molecular toxicology, 2010)", "key": {"[1]": {"target": "T1, r-SgAChE1 (Schizaphis graminum acetylcholinesterase-1) (Schizaphis graminum, UniProt Q9BMJ1)", "assay": "Inhibitory kinetic constants", "format": "biochemical", "settings": "ATC substrate, room temperature"}, "[2]": {"target": "T1, r-SgAChE1 (Schizaphis graminum acetylcholinesterase-1)", "assay": "Determination of IC50 for inhibition of purified r-SgAChE1", "format": "biochemical", "settings": "IC50, 5 min incubation, room temperature"}}}
{"smiles": "CCOP(=O)(OCC)Oc1ccc([N+](=O)[O-])cc1", "note": "[Paraoxon]", "values": [{"measurement": "Kd", "setting": "[1]; Kd (dissociation constant)", "value": "3.12 ± 0.34", "unit": "µM"}, {"measurement": "Kd", "setting": "[1]; Kd (dissociation equilibrium constant)", "value": "3.1 ± 0.3", "unit": "µM"}, {"measurement": "IC50", "setting": "[2]", "value": 0.016, "unit": "µM"}]}
